# Experimental data: the kinase profiling compilation of Christmann-Franck et al. (2016)
# Amino acid sequences for entries named in this document (tags omitted). A change or cut given only in a name is not applied to a line headed by its entry.
# UniProt Q9UEE5: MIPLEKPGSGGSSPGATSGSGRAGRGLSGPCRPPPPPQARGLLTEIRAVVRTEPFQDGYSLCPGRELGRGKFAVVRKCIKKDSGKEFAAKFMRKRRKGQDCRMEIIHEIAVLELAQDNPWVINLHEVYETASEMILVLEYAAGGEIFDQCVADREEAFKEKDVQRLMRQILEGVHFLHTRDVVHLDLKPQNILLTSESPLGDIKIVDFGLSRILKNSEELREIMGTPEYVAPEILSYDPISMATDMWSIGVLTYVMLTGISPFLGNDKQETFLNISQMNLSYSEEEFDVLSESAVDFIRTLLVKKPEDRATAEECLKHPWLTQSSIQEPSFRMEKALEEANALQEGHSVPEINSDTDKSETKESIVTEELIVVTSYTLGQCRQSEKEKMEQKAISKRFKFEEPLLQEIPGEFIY
# UniProt Q9H422: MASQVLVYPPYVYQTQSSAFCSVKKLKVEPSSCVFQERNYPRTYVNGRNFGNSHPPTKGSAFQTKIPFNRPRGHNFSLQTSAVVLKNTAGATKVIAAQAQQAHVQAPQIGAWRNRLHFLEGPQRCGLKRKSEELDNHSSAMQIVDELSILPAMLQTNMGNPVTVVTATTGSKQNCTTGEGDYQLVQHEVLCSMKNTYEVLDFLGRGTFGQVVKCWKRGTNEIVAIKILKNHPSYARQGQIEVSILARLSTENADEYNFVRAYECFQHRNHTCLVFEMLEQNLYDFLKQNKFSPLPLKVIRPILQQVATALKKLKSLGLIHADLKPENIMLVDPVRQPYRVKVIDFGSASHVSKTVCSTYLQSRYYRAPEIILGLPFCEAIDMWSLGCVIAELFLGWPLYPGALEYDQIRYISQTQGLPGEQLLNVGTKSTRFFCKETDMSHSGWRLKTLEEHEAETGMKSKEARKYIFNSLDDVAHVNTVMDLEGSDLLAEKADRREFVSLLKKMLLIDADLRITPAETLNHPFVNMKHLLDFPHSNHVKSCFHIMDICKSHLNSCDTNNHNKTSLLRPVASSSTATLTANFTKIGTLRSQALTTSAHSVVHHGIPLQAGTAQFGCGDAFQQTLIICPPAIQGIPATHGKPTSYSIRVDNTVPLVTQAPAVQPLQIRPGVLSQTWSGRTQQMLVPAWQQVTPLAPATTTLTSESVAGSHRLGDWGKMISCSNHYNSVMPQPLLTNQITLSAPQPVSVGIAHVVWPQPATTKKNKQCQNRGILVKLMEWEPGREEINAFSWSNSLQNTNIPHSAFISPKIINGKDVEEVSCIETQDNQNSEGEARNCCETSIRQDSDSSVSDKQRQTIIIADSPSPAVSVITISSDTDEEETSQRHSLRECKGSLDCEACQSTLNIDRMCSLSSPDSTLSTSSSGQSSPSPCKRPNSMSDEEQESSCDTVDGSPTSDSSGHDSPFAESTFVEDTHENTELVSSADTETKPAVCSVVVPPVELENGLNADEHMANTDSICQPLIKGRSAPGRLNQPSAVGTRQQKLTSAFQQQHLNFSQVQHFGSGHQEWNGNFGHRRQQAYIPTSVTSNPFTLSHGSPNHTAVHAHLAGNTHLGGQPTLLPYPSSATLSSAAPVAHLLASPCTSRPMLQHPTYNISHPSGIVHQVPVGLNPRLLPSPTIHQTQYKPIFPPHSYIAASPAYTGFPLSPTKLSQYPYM
# UniProt P54762: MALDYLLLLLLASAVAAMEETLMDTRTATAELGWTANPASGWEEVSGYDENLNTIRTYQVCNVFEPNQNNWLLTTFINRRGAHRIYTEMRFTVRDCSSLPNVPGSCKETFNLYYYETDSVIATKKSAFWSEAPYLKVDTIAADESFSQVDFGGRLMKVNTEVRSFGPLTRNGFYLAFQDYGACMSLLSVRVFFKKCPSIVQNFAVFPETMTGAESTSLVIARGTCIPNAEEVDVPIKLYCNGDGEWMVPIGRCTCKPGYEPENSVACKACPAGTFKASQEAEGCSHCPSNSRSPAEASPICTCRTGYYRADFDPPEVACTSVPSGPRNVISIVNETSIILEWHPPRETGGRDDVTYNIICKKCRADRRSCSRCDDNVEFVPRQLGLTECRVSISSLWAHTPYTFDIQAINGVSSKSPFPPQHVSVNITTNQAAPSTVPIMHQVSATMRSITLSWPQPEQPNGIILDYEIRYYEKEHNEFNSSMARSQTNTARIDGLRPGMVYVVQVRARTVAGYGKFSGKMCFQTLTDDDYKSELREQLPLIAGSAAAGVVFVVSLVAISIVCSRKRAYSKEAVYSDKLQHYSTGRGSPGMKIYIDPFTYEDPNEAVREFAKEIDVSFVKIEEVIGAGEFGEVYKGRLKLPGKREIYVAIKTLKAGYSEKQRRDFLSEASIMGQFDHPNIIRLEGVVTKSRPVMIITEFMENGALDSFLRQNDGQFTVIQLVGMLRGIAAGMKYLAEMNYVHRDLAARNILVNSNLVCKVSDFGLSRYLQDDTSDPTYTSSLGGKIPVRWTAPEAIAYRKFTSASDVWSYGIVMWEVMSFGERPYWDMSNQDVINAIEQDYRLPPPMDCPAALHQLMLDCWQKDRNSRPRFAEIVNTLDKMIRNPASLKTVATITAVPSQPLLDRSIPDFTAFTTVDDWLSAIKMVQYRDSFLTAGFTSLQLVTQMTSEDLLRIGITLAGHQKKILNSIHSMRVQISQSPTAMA
# UniProt P21802, whole entry, looked up: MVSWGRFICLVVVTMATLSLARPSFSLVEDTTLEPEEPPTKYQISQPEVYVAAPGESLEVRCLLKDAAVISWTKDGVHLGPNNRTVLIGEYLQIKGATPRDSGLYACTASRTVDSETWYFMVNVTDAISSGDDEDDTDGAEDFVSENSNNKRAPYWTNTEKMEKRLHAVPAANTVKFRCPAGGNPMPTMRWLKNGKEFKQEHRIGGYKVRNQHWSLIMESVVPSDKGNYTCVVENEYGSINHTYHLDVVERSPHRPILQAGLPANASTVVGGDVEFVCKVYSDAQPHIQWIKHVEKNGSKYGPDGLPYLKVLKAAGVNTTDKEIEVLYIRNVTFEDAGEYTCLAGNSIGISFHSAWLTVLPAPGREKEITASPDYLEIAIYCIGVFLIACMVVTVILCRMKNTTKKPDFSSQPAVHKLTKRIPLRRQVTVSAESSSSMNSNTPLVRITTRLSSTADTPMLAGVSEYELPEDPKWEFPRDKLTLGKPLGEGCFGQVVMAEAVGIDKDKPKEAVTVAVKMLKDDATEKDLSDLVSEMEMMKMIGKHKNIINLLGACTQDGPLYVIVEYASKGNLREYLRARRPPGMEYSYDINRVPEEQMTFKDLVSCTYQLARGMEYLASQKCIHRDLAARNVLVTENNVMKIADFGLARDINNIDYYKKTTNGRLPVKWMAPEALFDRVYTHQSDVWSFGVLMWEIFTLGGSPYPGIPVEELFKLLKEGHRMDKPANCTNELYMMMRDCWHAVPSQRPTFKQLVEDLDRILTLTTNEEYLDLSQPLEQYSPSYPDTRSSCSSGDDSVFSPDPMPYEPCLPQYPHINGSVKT
# UniProt P22455, whole entry, looked up: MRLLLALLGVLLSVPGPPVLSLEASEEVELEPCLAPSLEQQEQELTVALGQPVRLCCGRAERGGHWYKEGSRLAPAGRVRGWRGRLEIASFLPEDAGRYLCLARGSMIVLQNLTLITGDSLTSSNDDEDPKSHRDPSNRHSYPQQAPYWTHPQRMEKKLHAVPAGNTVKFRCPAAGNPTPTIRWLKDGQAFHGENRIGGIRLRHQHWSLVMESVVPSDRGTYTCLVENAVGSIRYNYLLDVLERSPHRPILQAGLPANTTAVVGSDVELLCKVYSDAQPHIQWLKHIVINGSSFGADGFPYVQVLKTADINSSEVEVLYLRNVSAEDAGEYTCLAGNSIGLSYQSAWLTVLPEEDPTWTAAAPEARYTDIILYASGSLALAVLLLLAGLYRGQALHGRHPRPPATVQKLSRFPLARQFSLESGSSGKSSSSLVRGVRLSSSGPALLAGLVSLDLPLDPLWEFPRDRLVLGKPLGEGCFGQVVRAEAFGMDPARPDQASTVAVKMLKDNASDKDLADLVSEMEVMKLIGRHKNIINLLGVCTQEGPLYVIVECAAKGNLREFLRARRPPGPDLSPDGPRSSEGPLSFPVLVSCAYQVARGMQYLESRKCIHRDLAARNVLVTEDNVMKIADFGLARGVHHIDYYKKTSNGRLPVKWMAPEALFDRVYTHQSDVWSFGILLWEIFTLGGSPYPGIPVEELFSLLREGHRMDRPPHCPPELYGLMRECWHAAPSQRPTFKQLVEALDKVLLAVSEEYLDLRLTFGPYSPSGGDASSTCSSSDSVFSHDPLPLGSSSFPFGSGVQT
# UniProt Q8NG66: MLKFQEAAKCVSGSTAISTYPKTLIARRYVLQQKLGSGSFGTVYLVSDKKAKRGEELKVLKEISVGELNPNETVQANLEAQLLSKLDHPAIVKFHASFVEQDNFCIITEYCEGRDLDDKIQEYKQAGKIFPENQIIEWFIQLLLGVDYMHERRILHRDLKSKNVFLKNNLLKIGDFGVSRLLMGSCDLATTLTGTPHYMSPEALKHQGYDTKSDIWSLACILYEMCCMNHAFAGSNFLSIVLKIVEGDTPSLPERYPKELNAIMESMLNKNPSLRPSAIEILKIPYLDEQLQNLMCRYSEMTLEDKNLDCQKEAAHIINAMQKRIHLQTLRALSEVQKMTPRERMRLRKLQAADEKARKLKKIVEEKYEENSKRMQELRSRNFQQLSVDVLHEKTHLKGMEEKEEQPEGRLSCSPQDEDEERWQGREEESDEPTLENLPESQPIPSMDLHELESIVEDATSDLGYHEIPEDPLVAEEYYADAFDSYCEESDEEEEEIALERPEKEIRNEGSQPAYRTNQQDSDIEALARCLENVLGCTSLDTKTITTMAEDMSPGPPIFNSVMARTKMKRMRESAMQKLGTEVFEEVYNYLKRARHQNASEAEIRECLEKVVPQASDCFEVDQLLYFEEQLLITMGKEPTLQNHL
# UniProt P51812, whole entry, looked up: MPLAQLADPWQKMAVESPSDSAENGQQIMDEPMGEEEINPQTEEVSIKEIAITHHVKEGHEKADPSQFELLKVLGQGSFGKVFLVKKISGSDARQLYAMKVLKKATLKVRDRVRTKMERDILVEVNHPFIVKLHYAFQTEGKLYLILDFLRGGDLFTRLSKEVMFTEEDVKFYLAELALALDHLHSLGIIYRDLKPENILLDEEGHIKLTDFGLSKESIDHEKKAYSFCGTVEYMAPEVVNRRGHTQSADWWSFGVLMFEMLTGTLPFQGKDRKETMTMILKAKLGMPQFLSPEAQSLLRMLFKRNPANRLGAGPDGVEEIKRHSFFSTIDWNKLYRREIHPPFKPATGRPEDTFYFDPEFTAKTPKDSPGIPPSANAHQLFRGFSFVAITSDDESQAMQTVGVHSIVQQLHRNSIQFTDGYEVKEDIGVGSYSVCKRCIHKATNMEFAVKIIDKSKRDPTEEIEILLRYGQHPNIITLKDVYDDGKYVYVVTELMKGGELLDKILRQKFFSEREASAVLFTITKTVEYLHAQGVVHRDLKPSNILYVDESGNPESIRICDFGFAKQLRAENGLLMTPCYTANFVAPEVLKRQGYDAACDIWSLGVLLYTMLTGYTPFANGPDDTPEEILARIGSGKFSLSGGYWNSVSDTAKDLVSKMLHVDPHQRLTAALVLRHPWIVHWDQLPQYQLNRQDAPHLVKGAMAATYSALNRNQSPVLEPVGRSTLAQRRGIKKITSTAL
# UniProt P06241, whole entry, looked up: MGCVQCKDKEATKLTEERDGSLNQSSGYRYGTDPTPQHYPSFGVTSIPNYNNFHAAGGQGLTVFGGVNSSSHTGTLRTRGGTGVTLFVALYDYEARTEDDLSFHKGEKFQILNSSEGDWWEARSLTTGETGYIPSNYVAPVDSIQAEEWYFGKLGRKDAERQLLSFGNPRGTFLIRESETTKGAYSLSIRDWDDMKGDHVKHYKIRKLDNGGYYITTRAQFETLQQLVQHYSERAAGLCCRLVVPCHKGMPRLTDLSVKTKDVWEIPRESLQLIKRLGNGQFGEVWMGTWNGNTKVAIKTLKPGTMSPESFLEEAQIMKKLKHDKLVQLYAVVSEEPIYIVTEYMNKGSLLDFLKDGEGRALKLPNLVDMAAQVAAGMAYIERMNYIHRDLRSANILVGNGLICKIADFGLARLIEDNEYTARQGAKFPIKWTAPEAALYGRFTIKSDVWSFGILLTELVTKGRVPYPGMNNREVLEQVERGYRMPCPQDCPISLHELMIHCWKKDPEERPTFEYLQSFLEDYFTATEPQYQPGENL
# Columns and labels:
# Experiment in all cases: radiometric filter-binding kinase assay, Kinase HotSpot
# Conditions in all cases: compound 0.5 µM; ATP 10 µM
# STK17A (human) = STK17A (human) (UniProt Q9UEE5)
# IGF1R (human) = IGF1R (human) (UniProt P08069)
# HIPK3 (human) = HIPK3 (human) (UniProt Q9H422)
# HIPK1 (human) = HIPK1 (human) (UniProt Q86Z02)
# MARK1 (human) = MARK1 (human) (UniProt Q9P0L2)
# PIM3 (human) = PIM3 (human) (UniProt Q86V86)
# PRKD1 (human) = PRKD1 (human) (UniProt Q15139)
# CAMKK2 (human) = CAMKK2 (human) (UniProt Q96RR4)
# EPHB1 (human) = EPHB1 (human) (UniProt P54762)
# NUAK2 (human) = NUAK2 (human) (UniProt Q9H093)
# FGFR2 (human) = FGFR2 (human) (UniProt P21802)
# MAP3K14 (human) = MAP3K14 (human) (UniProt Q99558)
# SRPK2 (human) = SRPK2 (human) (UniProt P78362)
# EPHA5 (human) = EPHA5 (human) (UniProt P54756)
# AURKC (human) = AURKC (human) (UniProt Q9UQB9)
# FGFR4 (human) = FGFR4 (human) (UniProt P22455)
# BRSK2 (human) = BRSK2 (human) (UniProt Q8IWQ3)
# NEK11 (human) = NEK11 (human) (UniProt Q8NG66)
# MST1R (human) = MST1R (human) (UniProt Q04912)
# PRKCB2 (human) = PRKCB2 (human) (UniProt P05771)
# SIK2 (human) = SIK2 (human) (UniProt Q9H0K1)
# SYK (human) = SYK (human) (UniProt P43405)
# HIPK4 (human) = HIPK4 (human) (UniProt Q8NE63)
# EGFR (human) = EGFR (human) (UniProt P00533)
# HCK (human) = HCK (human) (UniProt P08631)
# DMPK (human) = DMPK (human) (UniProt Q09013)
# PTK2 (human) = PTK2 (human) (UniProt Q05397)
# DYRK2 (human) = DYRK2 (human) (UniProt Q92630)
# CSNK1A1 (human) = CSNK1A1 (human) (UniProt P48729)
# MAP3K2 (human) = MAP3K2 (human) (UniProt Q9Y2U5)
# MAPKAPK3 (human) = MAPKAPK3 (human) (UniProt Q16644)
# RPS6KA3 KD1 KD2 (human) = RPS6KA3 KD1 KD2 (human) (UniProt P51812)
# CSF1R (human) = CSF1R (human) (UniProt P07333)
# FGR (human) = FGR (human) (UniProt P09769)
# HIPK2 (human) = HIPK2 (human) (UniProt Q9H2X6)
# SRC (human) = SRC (human) (UniProt P12931)
# FYN (human) = FYN (human) (UniProt P06241)
# FLT3 (human) = FLT3 (human) (UniProt P36888)
# PAK2 (human) = PAK2 (human) (UniProt Q13177)
# EPHB3 (human) = EPHB3 (human) (UniProt P54753)
# WNK2 (human) = WNK2 (human) (UniProt Q9Y3S1)
# FLT1 (human) = FLT1 (human) (UniProt P17948)
structure (smiles),measurement,setting,value
CO[C@H]1[C@@H](OC)C[C@H](C)[C@@H](OC)C2=CC(=O)C=C(NC(=O)/C(C)=C\C=C/[C@H](OC)[C@@H](OC(N)=O)/C(C)=C\[C@@H]1C)C2=O,residual activity,STK17A (human),92.9%
same,residual activity,IGF1R (human),104%
same,residual activity,HIPK3 (human),102%
same,residual activity,HIPK1 (human),106%
same,residual activity,MARK1 (human),90.5%
same,residual activity,PIM3 (human),98.2%
same,residual activity,PRKD1 (human),97.3%
same,residual activity,CAMKK2 (human),97.3%
same,residual activity,EPHB1 (human),104%
same,residual activity,NUAK2 (human),106%
same,residual activity,FGFR2 (human),110%
same,residual activity,MAP3K14 (human),67.9%
same,residual activity,SRPK2 (human),95.8%
same,residual activity,EPHA5 (human),112%
same,residual activity,AURKC (human),99.5%
same,residual activity,FGFR4 (human),105%
same,residual activity,BRSK2 (human),95.2%
same,residual activity,NEK11 (human),104%
same,residual activity,MST1R (human),103%
same,residual activity,PRKCB2 (human),96.9%
same,residual activity,SIK2 (human),103%
same,residual activity,SYK (human),89.5%
same,residual activity,HIPK4 (human),108%
same,residual activity,EGFR (human),95.1%
same,residual activity,HCK (human),107%
same,residual activity,DMPK (human),99.5%
same,residual activity,PTK2 (human),103%
same,residual activity,DYRK2 (human),93.4%
same,residual activity,CSNK1A1 (human),107%
same,residual activity,MAP3K2 (human),102%
same,residual activity,MAPKAPK3 (human),105%
same,residual activity,RPS6KA3 KD1 KD2 (human),99%
same,residual activity,CSF1R (human),104%
same,residual activity,FGR (human),90.3%
same,residual activity,HIPK2 (human),102%
same,residual activity,SRC (human),103%
same,residual activity,FYN (human),99.3%
same,residual activity,FLT3 (human),96.8%
same,residual activity,PAK2 (human),96.1%
same,residual activity,EPHB3 (human),91.3%
same,residual activity,WNK2 (human),98.3%
same,residual activity,FLT1 (human),102%
